Molecular target: GST-BRCA2-FLAG-His10 (GST-tagged full-length BRCA2) (human, UniProt P51587 1-3418)
Experiment: pull-down

binding result: binds
B1: 2× MBP-BRCA2NT-FLAG-His10 (domain or fragment)
chain: MPIGSKERPTFFEIFKTRCNKADLGPISLNWFEELSSEAPPYNSEPAEESEHKNNNYEPNLFKTPQRKPSYNQLASTPIIFKEQGLTLPLYQSPVKELDKFKLDLGRNVPNSRHKSLRTVKTKMDQADDVSCPLLNSCLSESPVVLQCTHVTPQRDKSVVCGSLFHTPKFVKGRQTPKHISESLGAEVDPDMSWSSSLATPPTLSSTVLIVRNEEASETVFPHDTTANVKSYFSNHDESLKKNDRFIASVTDSENTNQREAASHGFGKTSGNSFKVNSCKDHIGKSMPNVLEDEVYETVVDTSEEDSFSLCFSKCRTKNLQKVRTSKTRKKIFHEANADECEKSKNQVKEKYSFVSEVEPNDTDPLDSNVANQKPFESGSDKISKEVVPSLACEWSQLTLSGLNGAQMEKIPLLHISSCDQNISEKDLLDTENKRKKDFLTSENSLPRISSLPKSEKPLNEETVVNKRDEEQHLESHTDCILAVKQAISGTSPVASSFQGIKKSIFRIRESPKETFNASFSGHMTDPNFKKETEASESGLEIHTVCSQKEDSLCPNLIDNGSWPATTTQNSVALKNAGLISTLKKKTNKFIYAIHDETSYKGKKIPKDQKSELINCSAQFEANAFEAPLTFANADSGLLHSSVKRSCSQNDSEEPTLSLTSSFGTILRKCSRNETCSNNTVISQDLDYKEAKCNKEKLQLFITPEADSLSCLQE
